# Apparent affinities of Ab-14 variants for a coronavirus HR2 peptide

The measurements come from Li et al. 2023 (doi:10.1038/s41467-023-39022-2) through the FLAb antibody collection.

Antigen: PDVDLGDISGINAS, a 14-residue peptide of the SARS-CoV-2 spike HR2 region.

Parent scFv Ab-14: VH joined to VL by the linker GGGGSGGGGSGGGGS. Changes lie in the heavy chain CDRs alone.
VH: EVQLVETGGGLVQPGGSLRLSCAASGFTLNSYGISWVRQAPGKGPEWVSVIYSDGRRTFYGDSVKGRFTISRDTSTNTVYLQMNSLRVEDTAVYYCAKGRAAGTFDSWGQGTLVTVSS
VL: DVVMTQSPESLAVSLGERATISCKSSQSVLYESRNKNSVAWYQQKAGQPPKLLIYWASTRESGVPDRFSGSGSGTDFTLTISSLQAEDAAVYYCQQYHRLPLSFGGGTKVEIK

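Phage display of a naive human antibody library on the peptide gave the parent. This is the validation round: designs drawn from the data on random variants, tested in the same kind of assay. Group labels follow the data file (En: ensemble of fine-tuned language models; HC: hill climbing; Gen: genetic algorithm; Gibbs: Gibbs sampling; a sequence that several methods proposed may carry one label only). The scFvs were displayed on barcoded MATa yeast, the peptide on MATalpha yeast. Pairs that bind mate more often; barcode pairs of the diploids are counted by sequencing. Scores were corrected for input abundance and mapped to Kd with protein pairs of known affinity run in the same pool. Mating was done six times.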

The parent's heavy chain CDRs are GFTLNSYGIS, VIYSDGRRTFYGDSVK, GRAAGTFDS; each variant's own CDRs replace them letter for letter. Variants here have more than six changes. Each Kd is an estimate from the mating assay, the geometric mean of the replicates in which the pair was seen; lower is stronger. Where no diploid with the target was found in any replicate, the entry reads "not detected": below detection, most likely a poor binder, though not proof of it. The parent sequence was in this pool as ten entries: three were never detected, three once, and four in most replicates, with averages from 2.2 nM to 240 nM. The range of this assay differs from that of the first round, and the authors advise against merging the two. In the paper, a design with two or fewer of six values counts as a poor binder. Empty control strains, which show no peptide, gave a signal in 1% of pairings with all heavy chain designs; the median was 120 nM and 95% of these signals were weaker than 7.0 nM. No background was subtracted. For each scFv, signals with the empty controls are counted beside the result.

CDR-H1,CDR-H2,CDR-H3,group,apparent Kd,detected,control signals
GFDLDEYGIS,VIYADGRRTFYIDSVK,GETAGTFDN,En_HC,390 pM,6/6,0/18
GFDLNEYGIS,VIYADGRRTAYADSVK,GQVAGTFNV,En_HC,1.6 nM,6/6,0/18
GFSLDEYGIS,VIYADGRRTMYCDNFK,GELGCTFKM,En_Gibbs,not detected,0/6,0/18
GFNLNEYGIS,VIYADGRRTFYSDDVK,GEVAGTFDL,En_HC,140 pM,6/6,0/18
GFDLNEYGIS,VIYADGMRTAYVDDVK,GNNAGTFDI,En_Gen,210 pM,6/6,0/18
GKDIEEYGVS,VIYADGKRIAYANKFK,GSNAGSFVD,En_Gibbs,not detected,0/6,0/18
GEDLDEYGVS,VIYADGIRSTYADKVK,GKHGAAFFV,En_Gibbs,not detected,0/6,0/18
GFDIMEYGIS,VIYADGMRKAYENNVK,GGEVRSVVI,En_Gibbs,not detected,0/6,0/18
GFDLDEYGIS,VIYADGVRTAYADSVK,GQNAGTFDI,En_Gen,350 pM,6/6,0/18
GFDLNEYGIS,VIYADGVRTAYADSVK,GSNAGTFDL,En_Gen,690 pM,6/6,0/18
GEDLNEYGVS,VIYADGIRSTYADSFK,GKHGAAFFV,En_Gibbs,not detected,0/6,0/18
GFDLNEYGIS,VIYADGIRTAYADSVK,GENAGTFDV,En_Gen,620 pM,6/6,0/18
GFDLNEYGIS,VIYADGRRTFYSDSVK,GEVAGTFVN,En_HC,420 pM,6/6,0/18
GFDLDEYGIS,VIYADGKRTAYADDVK,GEVAGTFDV,En_Gen,590 pM,6/6,0/18
GFDLNEYGIS,VIYADGRRTFYTDSVK,GGNAGTFDN,En_HC,280 pM,6/6,0/18
GFDLNEYGIS,VIYADGRRTYYIDSVK,GEAAGTFDL,En_HC,160 pM,6/6,0/18
GFDLNEYGIS,VIYADGMRTAYVDSVK,GNNAGTFDQ,En_Gen,420 pM,6/6,0/18
GFQLDEYGIS,VIYADGLRTAYKDTVK,GSDTGLFMI,En_Gibbs,not detected,0/6,0/18
GYDLQDYGIS,VIYADGVRAFYHDSFK,GQLAGIFLL,En_Gibbs,not detected,0/6,0/18
GFDLNEYGIS,VIYADGMRTAYSDDVK,GNQAGTFDM,En_Gen,180 pM,6/6,0/18
GFDLDEYGIS,VIYADGRRTFYSDSVK,GGTAGTFDV,En_HC,690 pM,6/6,1/18
GFDLNEYGIS,VIYADGQRTAYADKVK,GNQAGTFDV,En_Gen,360 pM,6/6,0/18
GFDLNEYGIS,VIYADGRRTFYTDSVK,GEFAGTFDT,En_HC,1.0 nM,6/6,0/18
GFSLDEYGIS,VIYADGFRTAYTQSVK,GLMQQGRTV,En_Gibbs,15 nM,1/6,0/18
GFDLNEYGIS,VIYADGMRTAYADDVK,GNEAGTFDQ,En_Gen,460 pM,6/6,1/18
GYALTEYGIS,VIYADGRRTAYSQSVK,GLNGGIIVV,En_Gibbs,not detected,0/6,1/18
GFDLNEYGIS,VIYADGRRTFYADDVK,GENAGTFDV,En_Gen,270 pM,6/6,0/18
GEDLSEYGIS,VIYADGERRSYANSVK,GNVSGNFSQ,En_Gibbs,not detected,0/6,0/18
GFDLNEYGIS,VIYADGMRTAYADSVK,GNQAGTFNV,En_Gen,830 pM,6/6,0/18
GFDLNEYGIS,VIYADGQRTFYADSVK,GESAGTFDQ,En_HC,600 pM,6/6,1/18
GFDLNEYGIS,VIYADGRRTFYSDSVK,GEVGGTFDS,En_HC,450 pM,6/6,0/18
GFDLNEYGIS,VIYADGKRTFYADSVK,GQVAGTFDS,En_HC,79 pM,6/6,0/18
GFDLNEYGIS,VIYADGVRTAYIDSVK,GNVAGTFDT,En_Gen,260 pM,6/6,2/18
GFDLDEYGIS,VIYADGRRTAYSDSVK,GNNAGTFDV,En_Gen,230 pM,6/6,0/18
GFDLEEYGIS,VIYADGMRTTYIDKVK,GIAGDSFLV,En_Gibbs,10 nM,6/6,0/18
GFSLDEYGIS,VIYADGKRQVYADTVK,GNKDMTFDI,En_Gibbs,not detected,0/6,1/18
GFDLNEYGIS,VIYADGMRTAYADDVK,GNEAGTFDT,En_Gen,610 pM,6/6,0/18
GFDLNEYGIS,VIYADGRRTAYADSVK,GENAGTFDQ,En_Gen,280 pM,6/6,1/18
GFDLQEYGIS,VIYADGVREAYTENVK,GNSGGRDML,En_Gibbs,not detected,0/6,0/18
GYDIEQYGIS,VIYADGIRTVYHDSVK,GHNGDTFYV,En_Gibbs,23 µM,1/6,1/18
GKSLNEMGIS,VIYADGHRKMYANDVK,GHVGAIFMM,En_Gibbs,not detected,0/6,0/18
GFDLNEYGIS,VIYADGRRTAYLDSVK,GQLAGTFDV,En_HC,720 pM,6/6,0/18
GFDINEYGVS,VIYADGKRMAYAWKVK,GKEAGTFIL,En_Gibbs,not detected,0/6,1/18
GADLNEYGIS,VIYADGSRTVYADTVK,GKHGGMFDS,En_Gibbs,1.3 nM,6/6,0/18
GFDLDEYGIS,VIYADGKRTSYADSVK,GENAGTFDV,En_Gen,110 nM,3/6,0/18
GDDLQEYGIS,VIYADGLRTAYGNKVK,GGSNGLVTV,En_Gibbs,not detected,0/6,0/18
GFDLNEYGVS,VIYADGSRSAYTSSVK,GVHNLDIMI,En_Gibbs,not detected,0/6,0/18
GKKLDEYGIS,VIYADGVRSHYAESVK,GLHGTYLVA,En_Gibbs,not detected,0/6,0/18
GFDLQEMGIS,VIYADGARKSYTNSVK,GGFGGQMDV,En_Gibbs,not detected,0/6,0/18
GFDLDEYGIS,VIYADGVRTAYADDVK,GENAGTFDL,En_Gen,2.7 nM,5/6,0/18
GFDLNEYGIS,VIYADGRRTAYADSVK,GQNAGTFDQ,En_Gen,360 pM,6/6,0/18
GFALDEYGIS,VIYADGSRSAYTSSVK,GVHNGDVNI,En_Gibbs,not detected,0/6,0/18
GFDLNEYGIS,VIYADGVRTAYANSVK,GQVAGTFDV,En_Gen,300 pM,6/6,0/18
GFDLEEYGIS,VIYADGMRTQYINAVK,GIIGDNLDL,En_Gibbs,not detected,0/6,0/18
GYDLDDYGIS,VIYADGKRTSYAEDVK,GNIGGSLMN,En_Gibbs,not detected,0/6,0/18
GFDLEDYGIS,VIYADGKRTFYSDSVK,GEIAGTFDS,En_HC,4.6 nM,2/6,0/18
GFDLNEYGIS,VIYADGRRTAYTDSVK,GHVAGTFDL,En_HC,260 pM,6/6,0/18
GFDLNEYGIS,VIYADGRRTFYTDSVK,GGNAGTFDA,En_HC,480 pM,6/6,0/18
GFDLNEYGIS,VIYADGVRTVYADSVK,GQNAGTFDI,En_Gen,480 pM,6/6,0/18
GFDLNEYGIS,VIYADGVRTAYADDVK,GQNAGTFDI,En_Gen,350 pM,6/6,0/18
GFDLNEYGIS,VIYADGSRTAYVDSVK,GEVAGTFDV,En_Gen,370 pM,6/6,0/18
GFDLDEYGIS,VIYADGQRTAYSDSVK,GENAGTFDT,En_Gen,35 nM,6/6,0/18
GFDLNEYGIS,VIYADGQRTFYVDSVK,GQVAGTFNV,En_HC,220 pM,6/6,0/18
GFDLNEYGIS,VIYADGMRRAYAQNFK,GVTGGGLHI,En_Gibbs,not detected,0/6,0/18
GFDLNEYGIS,VIYADGMRTFYVDSVK,GVNAGTFDS,En_HC,230 pM,6/6,0/18
GFDLGEYGIS,VIYADGVRQSYVDKVK,GANGVDSLV,En_Gibbs,1.1 µM,2/6,1/18
GRNLDEYGIS,VIYADGTRTSYRDNVK,GVTGGHLVT,En_Gibbs,not detected,0/6,0/18
GFDLNEYGIS,VIYADGRRTFYSDSVK,GENAGTFDM,En_HC,630 pM,6/6,0/18